Data taken from ChEMBL document CHEMBL3271962 (J Med Chem, 1976).

Amino acid sequences for entries named in this document (tags omitted).
UniProt Q63380, whole entry: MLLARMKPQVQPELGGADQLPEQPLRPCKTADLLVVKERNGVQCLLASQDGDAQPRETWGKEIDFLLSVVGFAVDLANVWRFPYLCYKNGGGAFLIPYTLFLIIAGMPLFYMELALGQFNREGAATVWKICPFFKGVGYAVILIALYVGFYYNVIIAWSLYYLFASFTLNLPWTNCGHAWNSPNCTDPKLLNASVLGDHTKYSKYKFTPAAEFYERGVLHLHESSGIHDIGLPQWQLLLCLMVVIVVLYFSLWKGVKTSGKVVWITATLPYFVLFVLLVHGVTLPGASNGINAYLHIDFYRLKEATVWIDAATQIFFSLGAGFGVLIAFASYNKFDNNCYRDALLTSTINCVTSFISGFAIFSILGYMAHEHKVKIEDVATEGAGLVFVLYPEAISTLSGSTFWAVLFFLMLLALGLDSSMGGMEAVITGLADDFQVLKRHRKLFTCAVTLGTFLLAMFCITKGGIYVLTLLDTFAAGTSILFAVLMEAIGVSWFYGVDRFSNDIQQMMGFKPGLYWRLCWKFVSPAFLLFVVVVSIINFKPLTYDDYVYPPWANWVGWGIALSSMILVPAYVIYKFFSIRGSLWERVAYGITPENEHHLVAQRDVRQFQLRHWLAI

Target: Transporter (Rattus norvegicus, UniProt Q63380)
Assay: Inhibition of [3H]norepinephrine uptake at NET expressed in rat hypothalamic homogenate containing synaptosomes after 5 mins by scintillation counting analysis
Type: subcellular, Brain

Question: How did the IC50 turn out when `CC(N)Cc1ccccc1` (racemic) [AMPHETAMINE] was run?
Answer: 200 nM
